This is an account of results in article PMC6858373 (Scientific Reports, 2019).

The subject of the data set is Clone V cells. As to conditions: human.

Take Plicamycin: the “Toxicity Assay % Fluor (CTB cell viability fluorescence)” value was determined as 115.83% and the “Toxicity Assay Z-score (CTB cell viability)” value was determined as 2.21.
